A selection: hits, their analogues and other compounds. The true share with any hit is near 2.2%.
PI4K2A block: PI4K2A (human) kinase inhibition | Q9BTU6 | purified PI4K2A, ADP-Glo luminescence, 1 h; hits give low values | activity change, negative = inhibition, % at 76.9 µM | 420,000 compounds, 0.13% hits; in the data active means activity change below about -50%; inconclusive means mostly about -30% to -49%;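 further: -100% = wells without enzyme as full effect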
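Compounds are screened against recombinant PI4K2A using PI as substrate and ATP, the latter dispensed at 300 microM. Reactions run one hour at ambient temperature before ADP-Glo detection; full inhibition defined by wells lacking enzyme.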
A549 viability: counter-screen for Nrf2 inhibitors: cytotoxicity in A549 cells; A549 ARE-Fluc cells, CellTiter-Fluor viability, 18-24 h; Potency, µM (titrated, usually from 46 µM), for inactives: top-dose activity change, negative = cytotoxicity, usual class: inhibitors; 390,000 compounds, 0.16% hits; AID 504648; further: potency means the concentration at half of the fitted maximal effect; on the % scale 0 is the no-effect control and ±100 the full control effect
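A549 ARE-Fluc cells in 5% FBS OPTI-MEM, 5000 cells/well, rested 2 h then exposed to compounds in concentration-response for 18-24 h at 37 °C. Viability by CellTiter-Fluor fluorescence (Ex 405/Em 525) after 30 min; luciferase luminescence (BugLite, 15 min, RT) read afterwards.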
GALK inhibitor: galactokinase (human) inhibition. Potency, µM (series often up to 57.5 µM), without a hit: at the highest dose activity change, negative = inhibition, actives largely listed as inhibitors. P51570. 270,000 compounds, 0.007% hits. Purified GALK, Kinase-Glo residual ATP luminescence; further: potency means the concentration at half of the fitted maximal effect; on the % scale 0 is the no-effect control and ±100 the full control effect
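5 nM enzyme, 35 uM ATP, 100 uM galactose, 20 mM HEPES pH8.0, 5 mM MgCl2; 1 h RT; residual ATP by Kinase-Glo Plus luminescence, qHTS format.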
Nrf2 activator: activators of Nrf2 (ARE) signaling. AREc32 ARE-luciferase reporter (MCF7-derived line), luminescence, 24 h. Potency, µM (series often up to 46.1 µM), for the others: top-dose activation, most hits filed as activators. 410,000 compounds, 0.31% hits; further: potency means the concentration at half of the fitted maximal effect; % of control where 0% means no effect; nearly all actives have a fitted effect of over 65% in size
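AREc32_Fluc, 1000 cells/well, OPTI-MEM + 5% FBS, o/n 37 deg C 5% CO2; 23 nL cpd by pin tool, 24 hr; Steady-Glo 30 min RT, luminescence.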
Nrf2 block: Nrf2 pathway inhibition. A549 ARE-Fluc reporter, luciferase luminescence, 18-24 h. AID 504444. Potency, µM (top dose mostly 46 µM), for inactives: at the top dose activity change, negative = inhibition, most hits filed as inhibitors. 360,000 compounds, 2.1% hits; further: potency means the concentration at half of the fitted maximal effect; on the % scale 0 is the no-effect control and ±100 the full control effect; nearly all actives have a fitted effect of over 60% in size
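A549 ARE_Fluc cells (5000/well, 5% FBS OPTI-MEM) pre-incubated 2 h, then treated with compounds 18-24 h at 37C/5% CO2 in concentration-response. CellTiter-Fluor viability read first; BugLite luciferase luminescence after 15 min at room temperature gives Nrf2 activity.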
miR-21 reporter: miR-21 reporter, rising signal. HeLa miR-21 FLuc reporter, luciferase, 48 h. Potency, µM (highest dose often 38.3 µM), for the others: at the highest dose reporter change, positive = more light. 340,000 tested, under 10 active. AID 2288; active = well fitted rising curve with a large enough effect; inconclusive = small, poorly fitted or top-dose-only effect; inactive = no such curve, though single readings can be large or run the other way;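 further: % of control where 0% means no effect; miR-21 action dims this reporter so a rising signal means less miR-21 action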
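HeLa miR-21-FLuc reporter line, endogenous miR-21; 2000 cells/well in DMEM/10% FBS; compound titration up to ~40uM final, 48 h, 37 degree Celsius; luciferase detection reagent, 15 min lysis, CCD luminescence.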
The depositor's hits bear a star; ? = inconclusive; . = no result given; ! = repeats disagree; [ ] = another dose, or the depositor's remark. Unless noted, the call rests on the fitted dose curve; in most records, active means well fitted curve in the direction sought with a large enough effect; inconclusive means small, poorly fitted or top-dose-only effect, or another doubt; inactive means no such curve, though single readings can be large; an effect the other way counts as inactive or inconclusive.

Keys – A = PI4K2A block; B = A549 viability; C = GALK inhibitor; D = Nrf2 activator; E = Nrf2 block; F = miR-21 reporter
CCCCc1ccc(S(=O)(=O)NC2CCS(=O)(=O)C2)cc1 (stereo not drawn)
  A = 2; B = -2%; C = 0%; D = 2%; E = 18µM*; F = 13%
CN1C(=O)c2cc(NC(=O)Nc3ccccc3)ccc2OC[C@H]2O[C@@H](CC(=O)NC3CCC3)CC[C@@H]21
  A = -4; B = .; C = .; D = .; E = .; F = .
O=C(/C=C\c1ccco1)NC(=S)Nc1ccccc1O
  A = -4; B = -1%; C = -3%; D = 7.1µM*; E = 10%; F = -8%
O=C(/C=C/c1ccco1)NC(=S)Nc1ccccc1O
  A = -5; B = 3%; C = -3%; D = 26%; E = ?; F = -4%
O=S(=O)(c1cccc(-c2nnc(SCc3nc4ccccc4s3)o2)c1)N1CCOCC1
  A = 8; B = 7%; C = 3%; D = 14µM*; E = ?; F = -47%
O=C(COC(=O)C1(c2ccccc2F)CCCC1)NCc1ccc2c(c1)OCO2
  A = -2; B = -1%; C = -1%; D = 0%; E = -2%; F = -3%
NS(=O)(=O)c1ccc(NC(=O)COC(=O)C23CC4CC(CC(C4)C2)C3)cc1
  A = -4; B = 0%; C = -1%; D = 0%; E = 10%; F = -4%
NS(=O)(=O)c1ccc(NC(=O)COC(=O)C2(c3ccccc3F)CCCC2)cc1
  A = 4; B = ?; C = .; D = 0%; E = 21µM*; F = 11%
O=C(COC(=O)C1(c2ccccc2F)CCCC1)NCc1cccs1
  A = -4; B = -11%; C = 8%; D = 0%; E = 21µM*; F = -4%
O=C(Nc1nnc(C2CC2)s1)c1ccc(Cl)c(S(=O)(=O)N2CCc3ccccc3C2)c1
  A = -1; B = -4%; C = -3%; D = 0%; E = 23µM*; F = -9%
Cn1nc(C(=O)Nc2cccc(Cl)c2)cc1C(=O)Nc1cccc(Cl)c1
  A = -22; B = ?; C = 4%; D = 0%; E = 13µM*; F = 5%
Cc1ccc(-n2nc(C)c(C(=O)NCCCN3CCN(c4cccc(Cl)c4)CC3)c2-n2cccc2)cc1
  A = -4; B = ?; C = .; D = -1%; E = 16µM*; F = ?
CCOC(=O)c1cnc(-n2nc(C)cc2C)nc1NNc1nc(-c2ccccc2)cc(-c2ccccc2)n1
  A = 3; B = ?; C = .; D = 0%; E = 8.2µM*; F = -1%
C=C(C)CNC(=S)NN=C1c2ccccc2-c2ccccc21
  A = 2; B = -6%; C = 11%; D = 8%; E = ?; F = 1%
C=C(C)CNC(=S)N/N=C/c1ccco1
  A = 7; B = -1%; C = -3%; D = 11µM*; E = 9%; F = -9%
COc1ccc(C(=O)C2CCN(c3ncnc4sccc34)CC2)cc1
  A = 3; B = .; C = .; D = .; E = .; F = .
COc1ccc(/C=N/NC(=O)c2ccoc2C)cc1COc1ccc(Cl)cc1
  A = -4; B = -28%; C = 0%; D = 3%; E = 13µM*; F = 10%
COc1ccc(/C=N/NC(=O)c2ccoc2C)cc1OC
  A = 6; B = 11%; C = 1%; D = 1%; E = 13%; F = -64%
Cc1ccc(-c2cc(C(=O)N/N=C/C(Br)=C/c3ccccc3)n[nH]2)o1
  A = -7; B = -1%; C = 0%; D = 20µM*; E = ?; F = 20%
Cc1occc1C(=O)N/N=C/c1ccc(-c2ccccc2)cc1
  A = -78*; B = 1%; C = 29%; D = -1%; E = ?; F = -17%
Cc1ccc(-c2cc(C(=O)N/N=C/c3ccccc3O)n[nH]2)o1
  A = -15; B = -11%; C = -2%; D = 5%; E = -16%; F = 16%
Cc1occc1C(=O)N/N=C/c1ccc(OCc2ccccc2)cc1
  A = -5; B = -6%; C = 7%; D = 0%; E = -3%; F = -28%
Cc1ccsc1C(=O)N/N=C/c1ccc2c(c1)OCO2
  A = -54*; B = 7%; C = 12%; D = 0%; E = ?; F = -42%
O=C(NC1CCCCN(Cc2ccc(OC(F)(F)F)cc2)C1=O)c1ccc2ccccc2c1 (stereo not drawn)
  A = -3; B = .; C = .; D = .; E = .; F = .
CCCCN1CCN(C(=O)C2CCCN(C(=O)c3ccc4c(c3)NC(=O)CS4)C2)CC1 (stereo not drawn)
  A = 2; B = .; C = .; D = .; E = .; F = .

As a short view, part of the list above:
Keys – A = PI4K2A block; B = A549 viability; C = GALK inhibitor; D = Nrf2 activator; E = Nrf2 block; F = miR-21 reporter
CCCCc1ccc(S(=O)(=O)NC2CCS(=O)(=O)C2)cc1 (stereo not drawn)
  A = 2; B = -2%; C = 0%; D = 2%; E = 18µM*; F = 13%
CN1C(=O)c2cc(NC(=O)Nc3ccccc3)ccc2OC[C@H]2O[C@@H](CC(=O)NC3CCC3)CC[C@@H]21
  A = -4; B = .; C = .; D = .; E = .; F = .

Additional compounds:
Keys – A = PI4K2A block; B = A549 viability; C = GALK inhibitor; D = Nrf2 activator; E = Nrf2 block; F = miR-21 reporter
Cc1occc1C(=O)N/N=C/c1ccc2c(c1)OCO2
  A = -65*; B = 2%; C = ?; D = -2%; E = ?; F = -25%
O=C(O)c1ccc(N/N=C/c2ccc3c(c2)OCO3)cc1
  A = -67*; B = 2%; C = 16%; D = -2%; E = ?; F = ?
O=C(O)c1cc(N/N=C/c2ccc3c(c2)OCO3)ccc1Cl
  A = -12; B = -5%; C = 0%; D = 0%; E = ?; F = -52%
Cc1occc1C(=O)N/N=C/C(Br)=C/c1ccccc1
  A = -16; B = -16%; C = 9%; D = 16µM*; E = ?; F = -8%
COc1ccc(C(=O)N/N=C/C(Br)=C/c2ccccc2)cc1
  A = -6; B = -4%; C = 0%; D = 16µM*; E = -13%; F = -12%
O=C(CO)[C@@H](O)[C@H](O)[C@@H](O)CO
  A = 2; B = .; C = .; D = .; E = .; F = .
O=C(N/N=C/C(Br)=C\c1ccccc1)c1n[nH]c2c1CCC2
  A = -13; B = -9%[1.84 µM]; C = 0%; D = 14µM*; E = ?; F = -18%
CC(/C=N/NC(=O)c1n[nH]c2c1CCC2)=C\c1ccccc1
  A = -3; B = ?; C = -3%; D = 2%; E = 28%; F = -9%
O=C(C1CCCN(c2ncnc3c2nc2n3CCCCC2)C1)N1CCN(c2ccccc2F)CC1 (stereo not drawn)
  A = 4; B = 0%; C = 4%; D = -1%; E = -29%; F = -1%
O=C(C1CCN(c2ncnc3c2nc2n3CCCCC2)CC1)N1CCN(c2ccccc2)CC1
  A = -7; B = -4%; C = .; D = 0%; E = -1%; F = 13%
Cc1cccc(N2CCN(c3ncnc4c3nc3n4CCCCC3)CC2C)c1 (stereo not drawn)
  A = 5; B = 16µM*; C = .; D = -4%; E = 18µM*; F = ?
Fc1ccccc1N1CCN(c2ncnc3c2nc2n3CCCC2)CC1
  A = -4; B = -6%; C = .; D = 0%; E = 21µM*; F = 0%
O=C(C1CCN(c2ncnc3c2nc2n3CCCCC2)CC1)N1CCN(c2ccc(F)cc2)CC1
  A = -2; B = 7%; C = 6%; D = 2%; E = 18µM*!; F = 0%
Clc1ccc(CNc2ncnc3[nH]ncc23)c(Cl)c1
  A = 2; B = -14%; C = .; D = 0%; E = 23µM*; F = .
CCCN(CCC)Cc1c(C(=O)N/N=C/c2ccc(Br)cc2)nnn1-c1nonc1N
  A = 1; B = ?; C = 0%; D = -1%; E = 16µM*; F = -8%
CN(C)Cc1c(C(=O)N/N=C/c2cccc(OCc3c(F)cccc3Cl)c2)nnn1-c1nonc1N
  A = -8; B = 0%; C = -7%; D = 0%; E = 3.7µM*; F = 2%
CCCc1c(C(=O)N/N=C/c2cccs2)nnn1-c1nonc1N
  A = -6; B = 0%; C = -2%; D = 8.9µM*; E = 15%; F = -12%
C[C@H](N)C(=O)N[C@@H](C)C(=O)NC1[C@H]2CN(c3nc4c(cc3F)c(=O)c(C(=O)O)cn4-c3ccc(F)cc3F)C[C@@H]12 (stereo partly drawn)
  A = 1; B = .; C = .; D = .; E = .; F = .
CC1C(=O)N(Cc2ccccc2F)c2ccccc2N1C(=O)c1c(F)cccc1F (stereo not drawn)
  A = 1; B = 1%; C = 2%; D = 0%; E = ?; F = 26%
COc1cccc(CN2C(=O)C(C)N(C(=O)c3c(F)cccc3F)c3ccccc32)c1 (stereo not drawn)
  A = 4; B = -7%; C = -1%; D = 0%; E = 21µM*; F = ?

3 of the entries above in order of their number in Nrf2 activator, high to low.
smiles | Nrf2 activator
COc1ccc(C(=O)N/N=C/C(Br)=C/c2ccccc2)cc1 | 16µM*
O=C(N/N=C/C(Br)=C\c1ccccc1)c1n[nH]c2c1CCC2 | 14µM*
CCCc1c(C(=O)N/N=C/c2cccs2)nnn1-c1nonc1N | 8.9µM*
